# Laboratory results: ChEMBL document CHEMBL1157628, “Carbonic anhydrase activators. The first activation study of a coral secretory isoform with amino acids and amines” (Bioorg Med Chem, 2010)
# Amino acid sequences for entries named in this document (tags omitted). A change or cut given only in a name is not applied to a line headed by its entry.
# UniProt P23280: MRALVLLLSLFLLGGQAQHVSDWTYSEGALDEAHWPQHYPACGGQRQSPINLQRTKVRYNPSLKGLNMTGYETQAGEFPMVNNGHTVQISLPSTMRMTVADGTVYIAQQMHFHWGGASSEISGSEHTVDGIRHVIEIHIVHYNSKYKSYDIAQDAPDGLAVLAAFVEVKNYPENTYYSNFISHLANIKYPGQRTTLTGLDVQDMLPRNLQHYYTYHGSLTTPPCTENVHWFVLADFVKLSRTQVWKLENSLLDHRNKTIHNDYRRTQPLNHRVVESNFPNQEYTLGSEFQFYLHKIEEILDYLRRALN
# Tests used:
# [1] = target: Carbonic anhydrase 6 (Homo sapiens) (UniProt P23280); test: Activation of human full length CA6 by stopped flow CO2 hydration assay
# [2] = tested on: Stylophora pistillata; test: Activation of Stylophora pistillata carbonic anhydrase STPCA by stopped flow CO2 hydration assay
# [3] = tested on: N[C@H](Cc1c[nH]c2ccccc12)C(=O)O; test: Activity of human recombinant CA1 at 10 uM by stopped flow CO2 hydration assay
KA [1] [µM],KA [2] [µM],Compound,kcat [3] [×10⁵ /s]
16,21,N[C@H](Cc1ccccc1)C(=O)O,–
–,–,"Carbonic anhydrase 1 (Homo sapiens), P00915",2.3
1.23,34,N[C@@H](Cc1ccccc1)C(=O)O,–
